{
  "sequences": {"note": "Sequences of proteins named here, by UniProt entry; tags and fusion partners are left off. Residues count along the entry.", "UniProt O81226, 1-288": "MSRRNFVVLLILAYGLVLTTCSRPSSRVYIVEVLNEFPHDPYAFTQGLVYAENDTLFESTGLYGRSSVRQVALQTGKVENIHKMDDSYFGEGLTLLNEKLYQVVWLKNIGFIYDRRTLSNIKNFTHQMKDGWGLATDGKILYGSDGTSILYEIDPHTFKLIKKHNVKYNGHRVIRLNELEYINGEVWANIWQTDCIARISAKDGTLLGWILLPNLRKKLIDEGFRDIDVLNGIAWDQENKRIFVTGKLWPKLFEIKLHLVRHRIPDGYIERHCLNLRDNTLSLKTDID"},
  "source": "patent US8809010B2",
  "about": "“Method for prophylactic treatment of alzheimer's disease using inhibitors of glutaminyl cyclase and glutamate cyclases” (Probiodrug AG, priority 2003, dated 2014)",
  "key": {"[1]": {"biological_target": "T1, Papaya QC (Carica papaya, UniProt O81226)", "test": "Qualitative substrate conversion (MALDI-TOF / fluorometric)"}, "[2]": {"biological_target": "T1, Papaya QC", "test": "Fluorometric QC assay with H-Gln-AMC", "conditions": "H-Gln-AMC as substrate"}, "[3]": {"biological_target": "T1, Papaya QC", "test": "Continuous spectrophotometric QC assay (glutamate dehydrogenase coupled), substrate kinetics"}, "[4]": {"conditions": "0.05M Tricine-NaOH, pH 8.0, 0.5 M KCl"}},
  "note": "Read-outs that look alike come from different tables or passages of the source.",
  "data": [
    {"molecule": "H-Glu-βNA", "values": [
      {"measurement": "conversion by papaya QC", "setting": "[1]", "result": "None of these compounds were converted"}
    ]},
    {"molecule": "H-Glu(OMe)-Phe-Lys-Arg-Leu-Ala-NH2", "values": [
      {"measurement": "inhibition of papaya QC", "setting": "[2]", "result": "not inhibited"}
    ]},
    {"molecule": "H-Gln-Lys(Gln)-Arg-Leu-Ala-NH2", "values": [
      {"measurement": "conversion by papaya QC", "setting": "[1]", "result": "converted"}
    ]},
    {"molecule": "NC(=O)CC[C@H](N)C(=O)N[C@@H](CCC(=O)O)C(=O)N1CCC[C@H]1C(N)=O", "note": "[[Gln^1]-FPP]", "values": [
      {"measurement": "kcat", "setting": "[3]", "result": "32.5 ± 0.4", "unit": "s⁻¹"}
    ]},
    {"molecule": "NC(=O)CC[C@H](N)C(=O)N[C@@H](Cc1ccc(O)cc1)C(=O)O", "note": "[H-Gln-Tyr-OH]", "values": [
      {"measurement": "Ki* (mM)", "setting": "[3]; for substrate inhibition", "result": "n.i."}
    ]},
    {"molecule": "NC(=O)CC[C@H](N)C(=O)NCC(=O)O", "note": "[H-Gln-Gly-OH]", "values": [
      {"measurement": "Ki* (mM)", "setting": "[3]; for substrate inhibition", "result": "n.i."}
    ]},
    {"molecule": "CSCC[C@H](NC(=O)[C@H](Cc1c[nH]c2ccccc12)NC(=O)CNC(=O)[C@H](Cc1ccc(O)cc1)NC(=O)[C@H](C)NC(=O)[C@H](CCC(=O)O)NC(=O)[C@H](CCC(=O)O)NC(=O)[C@H](CCC(=O)O)NC(=O)[C@H](CCC(=O)O)NC(=O)[C@H](CCC(=O)O)NC(=O)[C@H](CC(C)C)NC(=O)[C@H](Cc1c[nH]c2ccccc12)NC(=O)[C@@H]1CCCN1C(=O)CNC(=O)[C@@H](N)CCC(N)=O)C(=O)N[C@@H](CC(=O)O)C(=O)N[C@@H](Cc1ccccc1)C(N)=O", "values": [
      {"measurement": "kcat", "setting": "[3]", "result": "25.8 ± 0.5", "unit": "s⁻¹"}
    ]},
    {"molecule": "CC(C)(C)OC(=O)C(N)CCC(N)=O", "note": "(stereo not shown) [H-Gln-OtBu]", "values": [
      {"measurement": "Ki* (mM)", "setting": "[3]; for substrate inhibition", "result": "n.i."}
    ]},
    {"molecule": "CC(C)C[C@H](NC(=O)[C@H](CCCNC(=N)N)NC(=O)[C@H](CCCCN)NC(=O)[C@H](Cc1ccccc1)NC(=O)[C@@H](N)CCC(=O)O)C(=O)N[C@@H](C)C(N)=O", "note": "[H-Glu-Phe-Lys-Arg-Leu-Ala-NH2]", "values": [
      {"measurement": "inhibition of papaya QC", "setting": "[2]", "result": "not inhibited"}
    ]},
    {"molecule": "H-Glu(OMe)-βNA", "values": [
      {"measurement": "conversion by papaya QC", "setting": "[1]", "result": "None of these compounds were converted"}
    ]},
    {"molecule": "NC(=O)CC[C@H](NC(=O)[C@@H](N)CCC(N)=O)C(=O)O", "note": "[H-Gln-Gln-OH]", "values": [
      {"measurement": "Ki* (mM)", "setting": "[3]; for substrate inhibition", "result": "n.i."}
    ]},
    {"molecule": "NC(=O)CCC(N)C(=O)Nc1ccc2ccccc2c1", "note": "(stereo not shown)", "values": [
      {"measurement": "kcat", "setting": "[3]", "result": "51.4 ± 1.4", "unit": "s⁻¹"},
      {"measurement": "Ki", "setting": "[3]; 0.05M Tricine-NaOH, pH 8.0", "result": 1140, "unit": "µM"},
      {"measurement": "kcat", "setting": "[3]; 0.05M Tricine-NaOH, pH 8.0", "result": "48.8 ± 1.0", "unit": "s⁻¹"},
      {"measurement": "Ki", "setting": "[3]; [4]", "result": 1330, "unit": "µM"},
      {"measurement": "kcat", "setting": "[3]; [4]", "result": "47.2 ± 0.8", "unit": "s⁻¹"},
      {"measurement": "Ki", "setting": "[3]; for substrate inhibition", "result": 1200, "unit": "µM"}
    ]},
    {"molecule": "H-Gln-NH2", "values": [
      {"measurement": "Km", "setting": "[3]", "result": 433, "unit": "µM"},
      {"measurement": "kcat", "setting": "[3]", "result": "44.8 ± 0.4", "unit": "s⁻¹"},
      {"measurement": "Ki (mM)", "setting": "[3]; 0.05M Tricine-NaOH, pH 8.0", "result": "n.i."},
      {"measurement": "Km", "setting": "[3]; 0.05M Tricine-NaOH, pH 8.0", "result": 434, "unit": "µM"},
      {"measurement": "kcat", "setting": "[3]; 0.05M Tricine-NaOH, pH 8.0", "result": "43.4 ± 0.4", "unit": "s⁻¹"},
      {"measurement": "Ki (mM)", "setting": "[3]; [4]", "result": "n.i."},
      {"measurement": "Km", "setting": "[3]; [4]", "result": 446, "unit": "µM"},
      {"measurement": "kcat", "setting": "[3]; [4]", "result": "45.2 ± 0.3", "unit": "s⁻¹"},
      {"measurement": "Ki* (mM)", "setting": "[3]; for substrate inhibition", "result": "n.i."}
    ]},
    {"molecule": "CC(C)[C@H](NC(=O)[C@@H](N)CCC(N)=O)C(=O)O", "note": "[H-Gln-Val-OH]", "values": [
      {"measurement": "Ki* (mM)", "setting": "[3]; for substrate inhibition", "result": "n.i."}
    ]},
    {"molecule": "NC(=O)CC[C@H](N)C(=O)N[C@@H](CCC(=O)O)C(=O)O", "note": "[H-Gln-Glu-OH]", "values": [
      {"measurement": "Ki (mM)", "setting": "[3]; 0.05M Tricine-NaOH, pH 8.0", "result": "n.i."},
      {"measurement": "Ki (mM)", "setting": "[3]; [4]", "result": "n.i."},
      {"measurement": "Ki* (mM)", "setting": "[3]; for substrate inhibition", "result": "n.i."}
    ]},
    {"molecule": "H-Gln(NMe)-Phe-Lys-Ala-Glu-NH2", "values": [
      {"measurement": "conversion by papaya QC", "setting": "[1]", "result": "only converted into a pyroglutamyl residue by papaya QC"}
    ]},
    {"molecule": "C[C@H](NC(=O)[C@@H](N)CCC(N)=O)C(=O)O", "note": "[H-Gln-Ala-OH]", "values": [
      {"measurement": "Ki (mM)", "setting": "[3]; 0.05M Tricine-NaOH, pH 8.0", "result": "n.i."},
      {"measurement": "Ki (mM)", "setting": "[3]; [4]", "result": "n.i."},
      {"measurement": "Ki* (mM)", "setting": "[3]; for substrate inhibition", "result": "n.i."}
    ]}
  ]
}
